The values below come from patent US4673747A, “Aminoalkylphenoxy derivatives” (Ikeda Mohando Co., Ltd., priority 1984, dated 1987).

By UniProt entry, the sequences of proteins in these tests, tags left out.
UniProt P47747, whole entry: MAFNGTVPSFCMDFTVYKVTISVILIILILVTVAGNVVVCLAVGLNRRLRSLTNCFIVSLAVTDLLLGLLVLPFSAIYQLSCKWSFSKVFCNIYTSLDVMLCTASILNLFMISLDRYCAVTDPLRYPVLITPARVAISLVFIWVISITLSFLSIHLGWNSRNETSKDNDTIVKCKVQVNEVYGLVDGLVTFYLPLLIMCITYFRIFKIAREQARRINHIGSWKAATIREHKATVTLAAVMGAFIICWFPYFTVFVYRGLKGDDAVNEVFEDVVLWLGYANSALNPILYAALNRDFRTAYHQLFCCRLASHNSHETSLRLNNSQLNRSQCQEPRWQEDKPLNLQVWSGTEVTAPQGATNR

The assay has as its target T1, Histamine H2-Receptor (Cavia porcellus, UniProt P47747).
T1 construct: from tissue; host or cells: isolated atrium of male Hartley guinea pig
Also on record: species or system guinea pig (male Hartley). As for the experimental part: A male Hartley guinea pig having a body weight of about 400 g was killed by cervical dislocation, and the artrium thereof was isolated and was suspended in an organ bath containing 50 ml of a modified Ringer solution and subjected to a tension of 1 g. The number of heart beats under such condition was recorded using a polygraph.
Initially, from 1×10^-7 mol to 3×10^-4 mol of histamine was allowed to act accumulatively to depict the curve of the dosage-reaction relationship. Likewise, the curve of the dosage of histamine-reaction relationship was depicted in the presence of 5×10^-7 mol to 1×10^-6 mol of the test sample which was injected 3 minutes before. The negative logarithm (pA2) of the molar concentration of the test sample required for moving the curve obtained by single administration of histamine parallel to the right side by a two-times concentration was calculated.

`CN/C(=N/CCSCc1nc[nH]c1C)NC#N` [Cimetidine, reference compound] gave a Kb of 355 nM.
